Amino acid sequences for entries named in this document (tags omitted). Residues count along the entry.
UniProt P43220, 24-463: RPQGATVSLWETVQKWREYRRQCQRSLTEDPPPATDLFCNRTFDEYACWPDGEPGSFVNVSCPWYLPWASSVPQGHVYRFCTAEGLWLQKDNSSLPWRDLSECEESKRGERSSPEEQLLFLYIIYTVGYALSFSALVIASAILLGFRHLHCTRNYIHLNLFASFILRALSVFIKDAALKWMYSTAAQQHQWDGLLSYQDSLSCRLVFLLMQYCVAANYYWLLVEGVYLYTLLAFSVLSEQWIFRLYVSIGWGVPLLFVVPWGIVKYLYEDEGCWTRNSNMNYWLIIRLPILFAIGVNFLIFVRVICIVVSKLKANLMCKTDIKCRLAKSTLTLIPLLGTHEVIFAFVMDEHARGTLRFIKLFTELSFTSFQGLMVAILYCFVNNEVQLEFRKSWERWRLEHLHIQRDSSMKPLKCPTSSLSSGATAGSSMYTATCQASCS

In patent US9950027:

Molecular target: human GLP-1 receptor (human) (UniProt P43220)
Assay: cell-based or functional assay

EC50 (nM), cAMP production (HTRF): 0.016 nM
Substance: Analogue 1 (Example 4, BAP-modified GLP-1 analogue): Ac-His-Ala-Glu-Gly-Thr-Phe-Thr-Ser-Asp-Val-Ser-Ser-Tyr-Leu-Glu-Gly-Gln-Ala-Ala-Lys-Glu-Phe-Ile-Ala-Trp-Leu-Val-Lys-Gly-Arg-Gly-(Lys-Lys-Ac)Lys-NH2 (peptide)
